Experiment: in vivo
Conditions: po, mouse, 7 days, read-out: Acute toxicity LD50
Description: Male ddY mice weighing 18-25 g were used in groups of 5-15 animals. Test compounds suspended in 0.5% aqueous tragacanth solution were given orally, and the mortality was investigated for 7 days following administration.

For `CCc1ccc(C(=O)C(C)CN2CCCC2)cc1.Cl` (stereo not shown) [Compound A, 1-(4-ethylphenyl)-2-methyl-3-(1-pyrrolidinyl)-1-propanone hydrochloride, reference compound], which LD50 at 168 h is on record?
The LD50 at 168 h was 458 mg/kg.
